Test results reported in publication PMC3698492 (Scientific Reports, 2013).

Tested on: Drosophila 5-HT receptor mutant larvae
Assay: Liquid food feeding assay in 5-HT receptor mutant larvae
Assay type: in vivo, Drosophila melanogaster

CSc1ccc2c(c1)C(N1CCN(C)CC1)Cc1ccccc1S2 (stereo not shown) [Metitepine]
sensitivity to anorectic effect (100 μM, 5-HT2A^Gal4 receptor mutants): resistant | sensitivity to anorectic effect (100 μM, null mutants of 5-HT receptors other than 5-HT2A^Gal4): sensitive to metitepine | sensitivity to anorectic effect (5-HT2A^PL homozygous mutants): insensitive | sensitivity to anorectic effect (5-HT2A^e01363 (5-HT2A^e) homozygote): sensitive | sensitivity to anorectic effect (heteroallelic mutant 5-HT2A^Gal4/PL): insensitive | sensitivity to anorectic effect (heteroallelic mutant 5-HT2A^Gal4/e): insensitive | sensitivity to anorectic effect (heterozygous 5-HT2A^Gal4 larvae): normal sensitivity
